# This is a selection; strong and weak results do not stand in their true shares. Calls of active or inactive are those of the source. Cut-off read from the data, not from the text of the source: active = inhibition above about 30%; inactive = below that, where a call was filed.
# Sequences of proteins named here, by UniProt entry; tags and fusion partners are left off.
# UniProt P14416, whole entry: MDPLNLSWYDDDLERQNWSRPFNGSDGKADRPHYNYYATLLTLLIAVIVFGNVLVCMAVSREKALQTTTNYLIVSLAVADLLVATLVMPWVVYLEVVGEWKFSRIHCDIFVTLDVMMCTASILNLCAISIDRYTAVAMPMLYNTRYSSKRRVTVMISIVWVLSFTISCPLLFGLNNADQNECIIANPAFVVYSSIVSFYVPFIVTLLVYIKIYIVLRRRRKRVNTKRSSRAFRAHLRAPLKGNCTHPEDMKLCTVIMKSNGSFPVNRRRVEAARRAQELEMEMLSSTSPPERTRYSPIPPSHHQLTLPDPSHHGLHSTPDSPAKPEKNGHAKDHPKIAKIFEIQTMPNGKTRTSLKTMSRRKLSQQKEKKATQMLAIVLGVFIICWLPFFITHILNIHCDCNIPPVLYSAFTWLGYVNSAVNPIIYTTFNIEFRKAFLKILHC
# Biological target: D(2) dopamine receptor (Homo sapiens) (UniProt P14416)
# Test: HTS Assay for Allosteric Antagonists of the Human D2 Dopamine Receptor: Primary Screen for Antagonists; note: 0% is about no effect
# Details: HEK293 TREx D2 cells, calcium flux, dopamine EC80; at 10 µM; active compounds read high
# Excerpt: NIH Chemical Genomics Center [NCGC] NIH Molecular Libraries Probe Centers Network [MLPCN] MLPCN Grant: NS064831-01 Assay Submitter (PI): David Sibley Dopamine receptors (DARs) are involved in the etiology and/or therapy of a number of neuropsychiatric and endocrine disorders. For instance, all receptor-based antiparkinsonian drugs work via stimulating the D2 DAR subtype whereas all FDA-approved antipsychotic agents are antagonists of this receptor. […] There are three different types of allosteric modulators that we are seeking, two of which will stimulate or augment receptor signaling, allosteric agonists and potentiators, while the third, allosteric antagonists, will attenuate receptor signaling. The present primary screening assay measures compound antagonism after an EC80 addition of dopamine by tracking calcium flux in a […], inducible Hek293 Trex D2 cell line.
# Freshly passaged cells are plated in 1536 well black, clear bottom plates at a density of 4000 cells/well in 3 ul of complete media containing 1x tetracycline inducer. After an overnight incubation at 30 C in 5% CO2, cells are loaded with 2 ul of the no wash Calcium Assay Kit (ABD Bioquest) and incubated at room temperature for 30 to 90 minutes. Agonist read: A 10 cycle (1 second/cycle) baseline measurement is taken and then the FDSS online 1536 pintool delivers 23 nl of compound library (as well as dopamine controls) to the plate. The plate is measured for kinetically at 1 cycle/sec for 180 seconds. Following the 180 second read, 1 ul of an EC80 (negative modulation assay) is delivered by an onboard pipette head. Measurements are taken kinetically for an additional 180 seconds.
row,Structure (SMILES),inhibition
1,Cc1nc2ccc3ccccc3c2s1.O=[N+]([O-])c1cc([N+](=O)[O-])c(O)c([N+](=O)[O-])c1,inactive: 3.95%
2,O=[N+]([O-])c1cc([N+](=O)[O-])c(-n2nnc3ccccc32)c([N+](=O)[O-])c1,inactive: 29.1%
3,CP(=O)(Nc1ccc(SC(F)(F)F)cc1)Oc1ccccc1 (stereo not drawn),inactive: 6.57%
4,CN1CCCCC1COC(=O)C1(O)c2ccccc2CCc2ccccc21 (stereo not drawn),inactive: 10.6%
5,COc1ccccc1OP(C)(=O)Nc1c(C)cccc1C (stereo not drawn),inactive: -5.81%
6,CC1=C2N=C(C=C3N=C(C(C)=C4[N-][C@@](C)([C@@H]5N=C1[C@](C)(CCC(=O)NC[C@@H](C)OP(=O)([O-])O[C@H]1[C@@H](O)[C@@H](n6cnc7cc(C)c(C)cc76)O[C@@H]1CO)[C@H]5CC(N)=O)[C@@](C)(CC(N)=O)[C@@H]4CCC(N)=O)[C@@](C)(CC(N)=O)[C@@H]3CCC(N)=O)C(C)(C)[C@@H]2CCC(N)=O.[C-]#N.[Co+3],inactive: -12.8%
7,O=[N+]([O-])c1cc([N+](=O)[O-])c(Nc2nnnn2CCO)c([N+](=O)[O-])c1,inactive: -2.42%
8,CC1=NCCc2c1[nH]c1ccccc21.O=[N+]([O-])c1cc([N+](=O)[O-])c(O)c([N+](=O)[O-])c1,inactive: 0.132%
9,Cc1ccc(C)c(NP(C)(=O)Oc2ccccc2)c1 (stereo not drawn),inactive: -3.91%
10,Cc1cc(C)cc(OP(C)(=O)Nc2ccccn2)c1 (stereo not drawn),inactive: -10.9%
11,CP(=O)(Nc1cccc(Br)c1)Oc1ccccc1 (stereo not drawn),inactive: -0.485%
12,CCOC(=O)c1ccc(NP(C)(=O)Oc2cc(C)cc(C)c2)cc1 (stereo not drawn),inactive: -7.08%
13,CCN(CC)CCCOC(=O)C(O)(c1ccccc1)c1ccccc1,inactive: 1.55%
14,Cc1cc(C)cc(OP(C)(N)=O)c1 (stereo not drawn),inactive: 6.64%
15,COc1ccc(OP(C)(=O)Nc2cccc(F)c2)cc1 (stereo not drawn),inactive: 2.66%
16,COc1ccccc1OP(C)(=O)Nc1ccc(C)cc1 (stereo not drawn),inactive: -3.25%
17,Cc1ccc(NP(C)(=O)Oc2ccccc2)c(C)c1 (stereo not drawn),inactive: 1.72%
18,CCOC(=O)c1ccc(NP(C)(=O)Oc2ccccc2)cc1 (stereo not drawn),inactive: 16.2%
19,O=[N+]([O-])c1ccc2c(c1)C=Nc1ccccc1O2,inactive: -12.8%
20,CC(C)(C)c1ccc(OP(C)(=O)Nc2ccc(SC(F)(F)F)cc2)cc1 (stereo not drawn),inactive: 4.78%
21,Cc1cccc(C)c1OP(C)(N)=O (stereo not drawn),inactive: 8.98%
22,O=[N+]([O-])c1cc([N+](=O)[O-])c(Nc2cccnc2)c([N+](=O)[O-])c1,inactive: 18.8%
23,CP(=O)(Nc1ccccc1Br)Oc1ccccc1 (stereo not drawn),inactive: -9.32%
24,COc1ccccc1OP(C)(=O)Nc1ccccc1 (stereo not drawn),inactive: -12.1%
25,CP(=S)(Nn1cnnc1)Oc1ccccc1 (stereo not drawn),inactive: -0.325%

row,Structure (SMILES),inhibition
1,CP(=O)(Nc1ccccn1)Oc1ccc(Cl)cc1 (stereo not drawn),inactive: -24.7%
2,CCOC(=O)c1ccc(NP(C)(=O)Oc2ccc(OC)cc2)cc1 (stereo not drawn),inactive: -24.1%
3,CP(=O)(NC(=O)Nc1ccccc1)Oc1ccccc1 (stereo not drawn),inactive: 9.02%
4,CCc1ccc(OP(C)(=O)N2CCN(c3ccc([N+](=O)[O-])cc3)CC2)cc1 (stereo not drawn),inactive: -0.152%
5,Cc1cc(C)cc(OP(C)(=O)Nc2ccc(SC(F)(F)F)cc2)c1 (stereo not drawn),inactive: -5.19%
6,CP(=O)(Nc1ccc(SC(F)(F)F)cc1)Oc1ccc(Cl)cc1 (stereo not drawn),inactive: 11.5%
7,Cc1cccc(C)c1OP(C)(=O)Nc1ccc(SC(F)(F)F)cc1 (stereo not drawn),inactive: 28.6%
8,CP(=O)(Oc1ccccc1)OC(c1ccccc1)C(F)(F)F (stereo not drawn),inactive: -4%
9,CN(C)C(=O)c1c([N+](=O)[O-])cc([N+](=O)[O-])cc1[N+](=O)[O-],inactive: 15%
10,COc1ccccc1OP(C)(=O)Nc1ccccc1Br (stereo not drawn),inactive: 16.5%
11,CC(C)(C)c1ccc(OP(C)(=O)O)cc1,inactive: 4.35%
12,CP(=O)(Nc1ccc(Cl)cc1)Oc1ccc(F)cc1 (stereo not drawn),inactive: -5.08%
13,COc1ccccc1OP(C)(=O)Nc1c(C)n(C)n(-c2ccccc2)c1=O (stereo not drawn),inactive: 8.04%
14,O=C(OCCCN1CCCC1)C(O)(c1ccccc1)C1CCCCC1 (stereo not drawn),inactive: 16.5%
15,CP(=O)(Oc1ccccc1)N1CCOC1=O (stereo not drawn),inactive: -9.92%
16,CCc1ccc(OP(C)(=O)Nc2cccnc2)cc1 (stereo not drawn),inactive: 3.02%
17,CCN(CC)CC(O)COC(=O)C(O)(c1ccccc1)C1CCCCC1 (stereo not drawn),inactive: -2.89%
18,COc1ccc(OP(C)(=O)Nc2ccc(Br)cc2)cc1 (stereo not drawn),inactive: -4.43%
19,CCOC(=O)c1ccc(NP(C)(=O)Oc2ccc(Cl)cc2)cc1 (stereo not drawn),inactive: -5.27%
20,CP(=O)(OC12CC3CC(CC(C3)C1)C2)OC12CC3CC(CC(C3)C1)C2,inactive: 13.4%
21,CP(=O)(Nc1ccc(Cl)cc1Cl)Oc1ccccc1 (stereo not drawn),inactive: 1.72%
22,CP(=O)(OCCOc1ccccc1)OCCOc1ccccc1,inactive: 17.1%
23,Cc1nc2ccc3ccccc3c2o1.O=[N+]([O-])c1cc([N+](=O)[O-])c(O)c([N+](=O)[O-])c1,inactive: -8.85%
24,COc1ccccc1OP(C)(=O)Nc1ccc(C)c(C)c1 (stereo not drawn),inactive: -9.04%
25,COc1ccc(OP(C)(=O)Nc2ccccc2Br)cc1 (stereo not drawn),inactive: -1.35%

row,Structure (SMILES),inhibition
1,Cc1cc(C)cc(OP(C)(=O)Nc2cccc(C(F)(F)F)c2)c1 (stereo not drawn),inactive: -15.4%
2,CP(=O)(Nc1ccccn1)Oc1ccccc1 (stereo not drawn),inactive: -15.3%
3,COc1ccccc1OP(C)(=O)Nc1ccc(C)cc1C (stereo not drawn),inactive: -13.1%
4,CCc1ccc(OP(C)(=O)O)cc1,inactive: 4.45%
5,Cc1c(NP(C)(=O)Oc2ccc(C(C)C)cc2)c(=O)n(-c2ccccc2)n1C (stereo not drawn),inactive: -16.3%
6,O=[N+]([O-])c1cc([N+](=O)[O-])c(Nc2ccccn2)c([N+](=O)[O-])c1,inactive: -4.17%
7,COc1ccc(OP(C)(=O)Nc2ccccn2)cc1 (stereo not drawn),inactive: 8.57%
8,CN(C)CCOC(=O)C(O)(c1ccccc1)C1CCCC1 (stereo not drawn),active: 51.7%
9,COc1ccccc1OP(C)(=O)Nc1ccc(Br)cc1 (stereo not drawn),inactive: 2%
10,O=C(OCCN1CCN(CCOCc2ccccc2)CC1)C(O)(c1ccccc1)c1ccccc1,inactive: 1.94%
11,CP(=O)(Nc1ccccc1F)Oc1ccccc1 (stereo not drawn),inactive: -2.53%
12,CC(C)c1ccc(OP(C)(=O)Nc2ccc(SC(F)(F)F)cc2)cc1 (stereo not drawn),inactive: 9.76%
13,CP(=O)(Nc1ccccc1)Oc1ccc(F)cc1 (stereo not drawn),inactive: 22.2%
14,CCCCCOc1ccc(NP(C)(=O)Oc2ccc(Cl)cc2Cl)cc1 (stereo not drawn),inactive: -19.7%
15,CCOC(=O)c1ccc(NP(C)(=O)Oc2ccc(F)cc2)cc1 (stereo not drawn),inactive: -3.74%
16,COc1ccc(OP(C)(=O)Nc2ccc(SC(F)(F)F)cc2)cc1 (stereo not drawn),inactive: 7.99%
17,O=[N+]([O-])c1ccc(OP2(=O)COCCO2)cc1 (stereo not drawn),inactive: 5.69%
18,Cc1cc(-c2cccc3ccccc23)c(C)cn1.O=[N+]([O-])c1cc([N+](=O)[O-])c(O)c([N+](=O)[O-])c1,inactive: -6.19%
19,CN(C)CCOC(=O)C(O)(c1ccccc1)C1CCCCC1 (stereo not drawn),active: 34%
20,COc1ccc(NP(C)(=O)Oc2ccccc2OC)cc1 (stereo not drawn),inactive: -10.1%
21,COc1ccc(OP(C)(=O)Nc2cccc(Br)c2)cc1 (stereo not drawn),inactive: -9.37%
22,Cc1ccccc1NP(C)(=O)Nc1ccccc1C,inactive: -19.9%
23,CP(=O)(Nc1ccc(SC(F)(F)F)cc1)Oc1ccc(F)cc1 (stereo not drawn),inactive: -0.0413%
